Source: patent EP2710378B1, “METHOD TO PROGNOSE VIRAL INFECTION BY MEASURING T CELL RESPONSE OR AUTO-ANTIBODIES TO APOPTOTIC EPITOPES” (Università degli Studi di Roma "La Sapienza", priority 2011, dated 2012)
Where two headings read alike, the source gives them in different places.

Tested on: HLA-A2
Type: binding, Human
[1] = number of the five alleles A*0201, A*0202, A*0203, A*0206, A*6802 bound
[2] = Table 9, peptides derived from not fragmented proteins, number of the five HLA-A2 alleles bound
[3] = Table 11, peptides derived from apoptotic cell-associated proteins, pools 1-4, number of the five HLA-A2 alleles bound
[4] = number of the five alleles A*0201, A*0202, A*0203, A*0206, A*6802 bound, Table 13
[5] = Table 8, peptides derived from fragmented proteins, number of the five HLA-A2 alleles bound

SMILES: CC(C)C[C@H](NC(=O)[C@H](CC(=O)O)NC(=O)[C@@H](NC(=O)[C@H](CO)NC(=O)[C@H](CC(=O)O)NC(=O)CNC(=O)[C@H](CCC(=O)O)NC(=O)[C@H](CC(C)C)NC(=O)[C@@H](N)CCCCN)[C@@H](C)O)C(=O)O [compound 140]
- Alleles bound [1]: 1

SMILES: CC(C)C[C@H](NC(=O)[C@H](CCC(=O)O)NC(=O)[C@@H](NC(=O)[C@H](CCCCN)NC(=O)[C@H](CC(C)C)NC(=O)[C@H](C)NC(=O)[C@H](CCC(=O)O)NC(=O)[C@H](CC(C)C)NC(=O)[C@@H](N)CCC(=O)O)[C@@H](C)O)C(=O)O [compound 168]
- Alleles bound [1]: 0

SMILES: CSCC[C@H](NC(=O)CN)C(=O)N[C@@H](Cc1ccccc1)C(=O)N[C@@H](CCCNC(=N)N)C(=O)N[C@H](C(=O)N[C@H](C(=O)NCC(=O)N[C@@H](CCC(N)=O)C(=O)N[C@@H](CC(C)C)C(=O)O)C(C)C)[C@@H](C)O [compound 113]
- Alleles bound [1]: 2

SMILES: CC[C@H](C)[C@H](NC(=O)CNC(=O)[C@H](Cc1c[nH]cn1)NC(=O)[C@H](CCC(=O)O)NC(=O)[C@@H](NC(=O)[C@@H]1CCCN1C(=O)[C@H](Cc1ccc(O)cc1)NC(=O)[C@H](CCCCN)NC(=O)[C@H](CC(C)C)NC(=O)[C@@H](N)[C@@H](C)O)[C@@H](C)CC)C(=O)O [compound 6]
- Alleles bound: 4

SMILES: CC(C)C[C@H](NC(=O)[C@H](CC(C)C)NC(=O)[C@H](CCCCN)NC(=O)[C@H](CCCCN)NC(=O)[C@H](CCC(=O)O)NC(=O)[C@H](CCCCN)NC(=O)[C@H](C)NC(=O)[C@H](CC(C)C)NC(=O)[C@@H](N)CCCCN)C(=O)O [compound 138]
- Alleles bound: 1

SMILES: CSCC[C@H](NC(=O)[C@@H](N)CCC(=O)O)C(=O)N[C@@H](CCCNC(=N)N)C(=O)N[C@@H](CCC(=O)O)C(=O)N[C@@H](CCC(N)=O)C(=O)N[C@@H](Cc1c[nH]cn1)C(=O)N[C@@H](CC(=O)O)C(=O)N[C@@H](C)C(=O)N[C@@H](CCC(N)=O)C(=O)N[C@H](C(=O)O)C(C)C [compound 54]
- Alleles bound [1]: 0

SMILES: CC[C@H](C)[C@H](NC(=O)[C@H](CO)NC(=O)[C@@H](NC(=O)[C@H](CC(N)=O)NC(=O)[C@H](CCCCN)NC(=O)[C@@H](NC(=O)[C@@H](NC(=O)[C@H](CC(C)C)NC(=O)[C@@H](N)CC(=O)O)[C@@H](C)O)[C@@H](C)O)C(C)C)C(=O)O [compound 242]
- Alleles bound [2]: 3

SMILES: CC[C@H](C)[C@H](NC(=O)[C@@H](N)[C@@H](C)O)C(=O)N[C@@H](Cc1c[nH]c2ccccc12)C(=O)N[C@@H](C)C(=O)N[C@@H](C)C(=O)N[C@@H](CC(N)=O)C(=O)N[C@@H](C)C(=O)NCC(=O)N[C@H](C(=O)O)C(C)C
- Alleles bound [3]: 5

SMILES: CC[C@H](C)[C@H](NC(=O)[C@H](CCSC)NC(=O)[C@H](CCC(=O)O)NC(=O)[C@H](C)NC(=O)[C@H](CCC(=O)O)NC(=O)[C@H](CCSC)NC(=O)[C@@H](N)CO)C(=O)N[C@@H](CCC(N)=O)C(=O)N[C@@H](CC(C)C)C(=O)O [compound 119]
- Alleles bound [1]: 2

SMILES: CC(C)C[C@H](NC(=O)[C@H](CO)NC(=O)[C@H](Cc1ccccc1)NC(=O)[C@H](CC(=O)O)NC(=O)[C@@H](NC(=O)[C@H](CO)NC(=O)[C@H](CC(=O)O)NC(=O)[C@H](CCC(N)=O)NC(=O)[C@H](CC(C)C)NC(=O)[C@@H](N)CC(C)C)C(C)C)C(=O)O
- Alleles bound [4]: 4

SMILES: CC(C)C[C@H](NC(=O)[C@H](CO)NC(=O)[C@H](Cc1ccccc1)NC(=O)[C@H](CC(=O)O)NC(=O)[C@@H](NC(=O)[C@H](CO)NC(=O)[C@H](CC(=O)O)NC(=O)[C@H](CCC(N)=O)NC(=O)[C@H](CC(C)C)NC(=O)[C@@H](N)CC(C)C)C(C)C)C(=O)O [compound 204]
- Alleles bound [5]: 4

SMILES: CC(C)C[C@H](NC(=O)[C@H](CCCCN)NC(=O)[C@H](C)NC(=O)[C@H](CC(=O)O)NC(=O)[C@H](CCC(=O)O)NC(=O)[C@@H](NC(=O)[C@H](C)NC(=O)[C@H](CCC(N)=O)NC(=O)[C@H](CC(C)C)NC(=O)[C@@H](N)CCC(=O)O)[C@@H](C)O)C(=O)O [compound 159]
- Alleles bound [1]: 1

SMILES: CC(C)C[C@H](NC(=O)[C@H](CC(N)=O)NC(=O)[C@H](CO)NC(=O)[C@H](CC(C)C)NC(=O)[C@H](CCC(N)=O)NC(=O)[C@H](CO)NC(=O)[C@H](CO)NC(=O)[C@H](CC(C)C)NC(=O)[C@@H](N)CO)C(=O)O
- Alleles bound [3]: 4

SMILES: CC(C)C[C@H](NC(=O)[C@H](CO)NC(=O)[C@H](CCC(=O)O)NC(=O)[C@@H](NC(=O)[C@H](CCCCN)NC(=O)[C@H](CCCNC(=N)N)NC(=O)[C@H](CCC(=O)O)NC(=O)[C@H](CC(C)C)NC(=O)[C@@H](N)CC(=O)O)C(C)C)C(=O)O [compound 218]
- Alleles bound [5]: 2

SMILES: CC[C@H](C)[C@H](NC(=O)[C@H](CC(C)C)NC(=O)[C@@H](N)C(C)C)C(=O)NCC(=O)NCC(=O)N[C@@H](CCCCN)C(=O)N1CCC[C@H]1C(=O)N[C@@H](CC(=O)O)C(=O)N[C@@H](CCCNC(=N)N)C(=O)N[C@H](C(=O)O)C(C)C [compound 18]
- Alleles bound [1]: 3

SMILES: CC(C)C[C@H](NC(=O)[C@@H](N)CCCCN)C(=O)N[C@@H](CO)C(=O)N1CCC[C@H]1C(=O)N[C@@H](CO)C(=O)N1CCC[C@H]1C(=O)N[C@@H](CO)C(=O)N[C@@H](CO)C(=O)N[C@@H](CCCNC(=N)N)C(=O)N[C@H](C(=O)O)C(C)C [compound 36]
- Alleles bound [1]: 3

SMILES: CC(C)C[C@H](NC(=O)CN)C(=O)N[C@@H](CCCCN)C(=O)N[C@@H](CO)C(=O)N[C@@H](CCCCN)C(=O)N[C@H](C(=O)N[C@@H](Cc1c[nH]cn1)C(=O)N[C@@H](C)C(=O)N[C@H](C(=O)O)C(C)C)[C@@H](C)O
- Alleles bound [4]: 0

SMILES: CC(C)C[C@H](NC(=O)[C@@H](N)CCCCN)C(=O)N[C@@H](CCCNC(=N)N)C(=O)N[C@@H](CCCNC(=N)N)C(=O)NCC(=O)N[C@@H](CC(=O)O)C(=O)N[C@@H](CC(C)C)C(=O)N1CCC[C@H]1C(=O)N[C@@H](Cc1ccccc1)C(=O)N[C@H](C(=O)O)C(C)C [compound 89]
- Alleles bound [1]: 4

SMILES: CC[C@H](C)[C@H](NC(=O)[C@H](CO)NC(=O)[C@H](CCC(N)=O)NC(=O)[C@H](CC(=O)O)NC(=O)[C@H](CCC(=O)O)NC(=O)[C@H](CCCNC(=N)N)NC(=O)[C@H](CC(=O)O)NC(=O)[C@H](CCC(N)=O)NC(=O)[C@H](CCSC)NC(=O)[C@@H](N)CCSC)C(=O)O [compound 123]
- Alleles bound [1]: 2

SMILES: CC(C)C[C@H](NC(=O)CNC(=O)[C@H](Cc1c[nH]cn1)NC(=O)[C@H](CCCCN)NC(=O)[C@@H](NC(=O)[C@H](CC(C)C)NC(=O)[C@H](CCC(=O)O)NC(=O)[C@H](CC(N)=O)NC(=O)[C@H](CC(C)C)NC(=O)[C@@H](N)CC(N)=O)C(C)C)C(=O)O [compound 233]
- Alleles bound [2]: 3

SMILES: CSCC[C@H](NC(=O)[C@@H](N)Cc1ccccc1)C(=O)N[C@@H](CCC(=O)O)C(=O)N[C@@H](CS)C(=O)N[C@@H](CC(N)=O)C(=O)N[C@@H](CC(C)C)C(=O)N[C@@H](CC(N)=O)C(=O)N[C@@H](CCC(=O)O)C(=O)N[C@@H](CC(C)C)C(=O)N[C@H](C(=O)O)C(C)C
- Alleles bound [4]: 2

SMILES: CC(C)C[C@H](NC(=O)CN)C(=O)N[C@@H](CCCCN)C(=O)N[C@@H](CO)C(=O)N[C@@H](CCCCN)C(=O)N[C@H](C(=O)N[C@@H](Cc1c[nH]cn1)C(=O)N[C@@H](C)C(=O)N[C@H](C(=O)O)C(C)C)[C@@H](C)O [compound 236]
- Alleles bound [2]: 0

SMILES: CC[C@H](C)[C@H](NC(=O)[C@H](CCC(N)=O)NC(=O)[C@H](CC(=O)O)NC(=O)[C@H](CCCCN)NC(=O)[C@H](CC(C)C)NC(=O)[C@@H](N)CC(=O)O)C(=O)N[C@@H](C)C(=O)N[C@@H](CCC(N)=O)C(=O)N[C@@H](CC(C)C)C(=O)O [compound 45]
- Alleles bound [1]: 1

SMILES: CC(C)C[C@H](NC(=O)[C@@H](NC(=O)[C@H](CCC(=O)O)NC(=O)[C@H](CCCNC(=N)N)NC(=O)[C@H](CC(C)C)NC(=O)[C@H](C)NC(=O)[C@H](CCCNC(=N)N)NC(=O)[C@H](CC(C)C)NC(=O)CN)[C@@H](C)O)C(=O)O
- Alleles bound [4]: 2

SMILES: CC(C)C[C@H](NC(=O)[C@H](CCCNC(=N)N)NC(=O)[C@H](CCC(=O)O)NC(=O)[C@H](CCC(=O)O)NC(=O)[C@H](CCC(=O)O)NC(=O)CNC(=O)[C@H](CCC(=O)O)NC(=O)[C@H](CC(C)C)NC(=O)[C@@H](N)CC(C)C)C(=O)O [compound 47]
- Alleles bound [1]: 1

SMILES: CC[C@H](C)[C@H](NC(=O)[C@@H](NC(=O)[C@@H](NC(=O)[C@H](CC(=O)O)NC(=O)[C@@H](NC(=O)[C@@H](NC(=O)[C@H](CCCCN)NC(=O)[C@H](CC(C)C)NC(=O)[C@@H](N)CC(=O)O)[C@@H](C)CC)[C@@H](C)O)C(C)C)[C@@H](C)CC)C(=O)O [compound 164]
- Alleles bound [1]: 0

SMILES: CSCC[C@H](NC(=O)[C@@H](N)CCC(=O)O)C(=O)N[C@@H](CCCNC(=N)N)C(=O)N[C@@H](CCC(N)=O)C(=O)N[C@@H](CCCCN)C(=O)N[C@@H](Cc1c[nH]cn1)C(=O)N[C@@H](CO)C(=O)N[C@@H](CCC(N)=O)C(=O)N[C@@H](C)C(=O)N[C@H](C(=O)O)C(C)C [compound 184]
- Alleles bound [1]: 0

SMILES: CSCC[C@H](NC(=O)[C@@H](N)Cc1ccccc1)C(=O)N[C@@H](CCC(=O)O)C(=O)N[C@@H](CS)C(=O)N[C@@H](CC(N)=O)C(=O)N[C@@H](CC(C)C)C(=O)N[C@@H](CC(N)=O)C(=O)N[C@@H](CCC(=O)O)C(=O)N[C@@H](CC(C)C)C(=O)N[C@H](C(=O)O)C(C)C [compound 238]
- Alleles bound [2]: 2

SMILES: CC[C@H](C)[C@H](NC(=O)[C@H](Cc1ccc(O)cc1)NC(=O)[C@@H](NC(=O)[C@H](C)NC(=O)[C@H](CC(C)C)NC(=O)[C@H](CCCNC(=N)N)NC(=O)[C@H](CC(=O)O)NC(=O)[C@H](CC(N)=O)NC(=O)[C@H](CC(C)C)NC(=O)[C@@H](N)CCC(=O)O)C(C)C)C(=O)O [compound 38]
- Alleles bound [1]: 2

SMILES: CC[C@H](C)[C@H](NC(=O)CNC(=O)CNC(=O)[C@H](C)NC(=O)[C@@H](NC(=O)[C@@H](N)CO)[C@@H](C)CC)C(=O)N[C@H](C(=O)NCC(=O)N[C@H](C(=O)O)C(C)C)[C@@H](C)CC [compound 14]
- Alleles bound [1]: 5

SMILES: CC(C)C[C@H](NC(=O)CNC(=O)[C@H](Cc1c[nH]cn1)NC(=O)[C@H](CCCCN)NC(=O)[C@@H](NC(=O)[C@H](CC(C)C)NC(=O)[C@H](CCC(=O)O)NC(=O)[C@H](CC(N)=O)NC(=O)[C@H](CC(C)C)NC(=O)[C@@H](N)CC(N)=O)C(C)C)C(=O)O
- Alleles bound [4]: 3
